These results are taken from patent US20250353891A1 (MEDIMMUNE LIMITED, priority 2022, published 2025).

The chains behind the UniProt entries cited, without tags or fusion partners. Residues count along the entry.
UniProt P43220, 24-463: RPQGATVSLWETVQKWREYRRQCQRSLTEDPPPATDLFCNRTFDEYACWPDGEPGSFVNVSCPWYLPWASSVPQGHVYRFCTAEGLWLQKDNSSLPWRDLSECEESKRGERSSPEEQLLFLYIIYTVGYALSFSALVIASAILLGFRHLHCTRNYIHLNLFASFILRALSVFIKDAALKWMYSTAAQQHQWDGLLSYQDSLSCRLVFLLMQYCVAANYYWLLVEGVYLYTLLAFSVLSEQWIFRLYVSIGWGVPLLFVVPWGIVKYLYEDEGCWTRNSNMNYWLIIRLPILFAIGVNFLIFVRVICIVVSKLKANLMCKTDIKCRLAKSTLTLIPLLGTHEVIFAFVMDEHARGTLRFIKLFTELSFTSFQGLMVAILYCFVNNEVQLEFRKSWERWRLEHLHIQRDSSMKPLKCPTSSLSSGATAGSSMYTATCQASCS
UniProt P47871, 26-477: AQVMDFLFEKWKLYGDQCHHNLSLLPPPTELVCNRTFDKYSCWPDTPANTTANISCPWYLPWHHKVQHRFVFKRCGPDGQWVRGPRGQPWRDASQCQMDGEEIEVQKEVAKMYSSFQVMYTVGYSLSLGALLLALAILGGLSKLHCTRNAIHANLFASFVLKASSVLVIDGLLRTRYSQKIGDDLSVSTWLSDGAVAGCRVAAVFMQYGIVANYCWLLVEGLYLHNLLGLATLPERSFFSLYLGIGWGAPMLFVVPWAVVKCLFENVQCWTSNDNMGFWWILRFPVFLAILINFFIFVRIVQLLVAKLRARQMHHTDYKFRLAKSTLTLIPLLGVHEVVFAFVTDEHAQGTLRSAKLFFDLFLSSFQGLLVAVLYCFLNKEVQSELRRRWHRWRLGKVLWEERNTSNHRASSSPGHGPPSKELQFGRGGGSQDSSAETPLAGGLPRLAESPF

For assay [1], the target named is human GLP-1 receptor (hGLP-1R) (Homo sapiens, UniProt P43220). The assay is described as follows: cAMP production (HTRF) in CHO cells expressing hGLP-1R. Format: cell-based. More on the design: expressed in transfected cells. Particulars: read-out: hGLP-1R EC50, 0.1% BSA, geometric mean. The procedure:
(§1) Cells were re-suspended in assay buffer at a batch-dependent optimized concentration (typically hGLP-1R cells at 1×10^5 cells/mL, hGCGR cells at 2×10^5 cells/mL).
(§2) Cells were added to the assay plate using a multidrop dispenser and incubated at room temperature for 30 minutes before measuring the cAMP level using a cAMP dynamic 2 homogeneous time resolved Fluorescence (HTRF) kit (Cisbio Bioassays #62AM4PEJ) following the two-step protocol as per manufacturer's recommendations. In brief, anti-cAMP cryptate (donor fluorophore) and cAMP-d2 (acceptor fluorophore) were made up separately by diluting each 1 in 20 in conjugate and lysis buffer provided in the kit. Anti-CAMP cryptate was added to all wells of the assay plate, followed by cAMP-d2 added to all wells except non-specific binding (NSB) wells (to which conjugate and lysis buffer was added).
(§3) Data was transformed to % Delta F as described in the manufacturer's guidelines and analyzed by 4-parameter logistic fit to determine EC50 values.

Assay [2] concerns the target human glucagon receptor (hGCGR) (Homo sapiens, UniProt P47871). As to the kind of experiment: cAMP production (HTRF) in CHO cells expressing hGCGR. Format: cell-based. More on the design: expressed in transfected cells. Particulars: read-out: hGluc-R EC50, 0.1% BSA, geometric mean. The procedure:
as §1, §2, §3

For the substance “H(Aib)HGS(αMePhe)TSDK(O20C-O2OC-γE-γE-C20diacid)10SK(αMePhe)LDSRAAQD(αMePhe)VQ(Aib)IANT-amide [Peptide 391]”, the figures for the EC50 in assay [1] and in assay [2] were 0.893 nM and 22.2 nM, respectively.
